Source: ChEMBL document CHEMBL5543070, “Structure-activity relationship study of 1,6-naphthyridinone derivatives as selective type II AXL inhibitors with potent antitumor efficacy” (Eur J Med Chem, 2024)

What was measured:
[1] = biological target: T1, Tyrosine-protein kinase Mer (Homo sapiens) (UniProt Q12866); assay: Inhibition of MER (unknown origin) at 1 uM relative to control
T1 sequence (whole entry): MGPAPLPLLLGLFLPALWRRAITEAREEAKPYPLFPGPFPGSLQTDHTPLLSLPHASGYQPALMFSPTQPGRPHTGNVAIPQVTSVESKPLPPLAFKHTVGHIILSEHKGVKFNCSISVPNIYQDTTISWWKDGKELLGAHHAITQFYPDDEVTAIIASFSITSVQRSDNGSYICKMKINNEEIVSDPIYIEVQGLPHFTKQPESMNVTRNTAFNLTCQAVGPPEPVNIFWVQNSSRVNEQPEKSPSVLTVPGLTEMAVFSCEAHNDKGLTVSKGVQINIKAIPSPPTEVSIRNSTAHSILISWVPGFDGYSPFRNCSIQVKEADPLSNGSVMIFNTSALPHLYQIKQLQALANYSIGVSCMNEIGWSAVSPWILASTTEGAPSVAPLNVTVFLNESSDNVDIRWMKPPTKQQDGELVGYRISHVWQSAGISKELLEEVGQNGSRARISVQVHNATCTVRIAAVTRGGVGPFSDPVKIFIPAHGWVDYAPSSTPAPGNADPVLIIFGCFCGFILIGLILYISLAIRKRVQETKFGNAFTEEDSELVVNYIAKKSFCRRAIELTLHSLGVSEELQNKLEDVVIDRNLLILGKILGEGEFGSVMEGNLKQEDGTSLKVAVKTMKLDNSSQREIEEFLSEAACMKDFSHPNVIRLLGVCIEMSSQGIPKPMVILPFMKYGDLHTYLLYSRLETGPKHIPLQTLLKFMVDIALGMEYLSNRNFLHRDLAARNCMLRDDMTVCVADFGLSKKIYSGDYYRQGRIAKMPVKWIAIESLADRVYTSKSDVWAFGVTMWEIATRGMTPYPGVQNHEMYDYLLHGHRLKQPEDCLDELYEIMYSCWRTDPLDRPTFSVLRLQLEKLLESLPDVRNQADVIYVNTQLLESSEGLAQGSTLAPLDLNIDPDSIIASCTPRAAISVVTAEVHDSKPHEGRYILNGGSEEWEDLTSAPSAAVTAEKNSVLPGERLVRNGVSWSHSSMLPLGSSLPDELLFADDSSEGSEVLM

[2] = biological target: T2, Tyrosine-protein kinase receptor TYRO3 (Homo sapiens) (UniProt Q06418); assay: Inhibition of TYRO3 (unknown origin) at 1 uM relative to control
T2 sequence (whole entry): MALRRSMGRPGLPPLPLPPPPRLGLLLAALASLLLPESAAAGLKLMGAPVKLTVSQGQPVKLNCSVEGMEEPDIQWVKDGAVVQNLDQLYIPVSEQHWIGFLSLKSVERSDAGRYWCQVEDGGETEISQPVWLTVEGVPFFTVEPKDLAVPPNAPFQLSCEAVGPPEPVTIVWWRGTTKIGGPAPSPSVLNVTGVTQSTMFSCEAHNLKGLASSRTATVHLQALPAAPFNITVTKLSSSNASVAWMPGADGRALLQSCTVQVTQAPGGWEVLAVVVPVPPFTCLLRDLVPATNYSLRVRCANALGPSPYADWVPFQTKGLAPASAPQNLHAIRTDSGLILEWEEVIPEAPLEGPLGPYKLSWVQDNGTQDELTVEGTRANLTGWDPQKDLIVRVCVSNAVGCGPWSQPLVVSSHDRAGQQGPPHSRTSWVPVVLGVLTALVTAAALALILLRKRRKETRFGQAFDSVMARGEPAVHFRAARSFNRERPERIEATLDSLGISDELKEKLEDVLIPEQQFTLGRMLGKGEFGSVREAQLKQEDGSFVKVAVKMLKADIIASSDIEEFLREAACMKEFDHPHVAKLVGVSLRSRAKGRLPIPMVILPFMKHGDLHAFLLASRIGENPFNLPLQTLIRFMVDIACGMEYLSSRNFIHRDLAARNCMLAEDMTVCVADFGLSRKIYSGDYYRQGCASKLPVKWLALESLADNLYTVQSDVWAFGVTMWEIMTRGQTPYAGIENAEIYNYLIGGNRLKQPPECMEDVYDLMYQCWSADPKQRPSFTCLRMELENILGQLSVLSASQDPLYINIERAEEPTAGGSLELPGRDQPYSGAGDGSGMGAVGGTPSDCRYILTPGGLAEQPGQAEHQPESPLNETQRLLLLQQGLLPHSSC

- inhibition [1]: 97%
- inhibition [2]: 91%
Structure (SMILES): COc1cc2ncnc(Oc3ccc(Nc4nccc5c4c(=O)c(-c4cccc(C)c4)cn5C)cc3F)c2cc1OC
